For the assay, the target named is wildtype α/β-NAC heterodimer (nascent polypeptide–associated complex) from Caenorhabditis elegans (C. elegans) (UniProt Q18885). Kind of assay: cross-linking; BS3 (d0/d4) at 20- or 50-fold molar excess, 20 uM NAC alone or + 20 uM substrate, 10 mM sodium phosphate pH 7.0, room temperature 1 h; SDS-PAGE, in-gel tryptic digest, LC-MS/MS.

“α-synuclein (from UniProt P37840 1-140) (natural protein)”: the stoichiometry N was determined as 1.

Source of the values: article PMC5986199.
